The text below walks through data of publication PMC4764553, “Human cytomegalovirus IE1 protein alters the higher-order chromatin structure by targeting the acidic patch of the nucleosome” (eLife, 2016).

This test deals with Human nucleosome core particle (human histone octamer with the 147-bp Widom 601 DNA) (human), P68431. The test is described as follows: ITC. For orientation: ITC needs no label: the signal is the heat of the interaction.

For orientation: Kd means the concentration at which binding is half-saturated. MAPPGMRLRSGRSTGAPLTRGS (modifications not checked) gave a dissociation constant Kd of 250 nM.
